Source: ChEMBL document CHEMBL1681676, “The design and synthesis of novel N-hydroxyformamide inhibitors of ADAM-TS4 for the treatment of osteoarthritis” (Bioorg Med Chem Lett, 2011)

Biological target: T1, A disintegrin and metalloproteinase with thrombospondin motifs 4 (Homo sapiens, UniProt O75173)
T1 sequence (O75173 whole entry): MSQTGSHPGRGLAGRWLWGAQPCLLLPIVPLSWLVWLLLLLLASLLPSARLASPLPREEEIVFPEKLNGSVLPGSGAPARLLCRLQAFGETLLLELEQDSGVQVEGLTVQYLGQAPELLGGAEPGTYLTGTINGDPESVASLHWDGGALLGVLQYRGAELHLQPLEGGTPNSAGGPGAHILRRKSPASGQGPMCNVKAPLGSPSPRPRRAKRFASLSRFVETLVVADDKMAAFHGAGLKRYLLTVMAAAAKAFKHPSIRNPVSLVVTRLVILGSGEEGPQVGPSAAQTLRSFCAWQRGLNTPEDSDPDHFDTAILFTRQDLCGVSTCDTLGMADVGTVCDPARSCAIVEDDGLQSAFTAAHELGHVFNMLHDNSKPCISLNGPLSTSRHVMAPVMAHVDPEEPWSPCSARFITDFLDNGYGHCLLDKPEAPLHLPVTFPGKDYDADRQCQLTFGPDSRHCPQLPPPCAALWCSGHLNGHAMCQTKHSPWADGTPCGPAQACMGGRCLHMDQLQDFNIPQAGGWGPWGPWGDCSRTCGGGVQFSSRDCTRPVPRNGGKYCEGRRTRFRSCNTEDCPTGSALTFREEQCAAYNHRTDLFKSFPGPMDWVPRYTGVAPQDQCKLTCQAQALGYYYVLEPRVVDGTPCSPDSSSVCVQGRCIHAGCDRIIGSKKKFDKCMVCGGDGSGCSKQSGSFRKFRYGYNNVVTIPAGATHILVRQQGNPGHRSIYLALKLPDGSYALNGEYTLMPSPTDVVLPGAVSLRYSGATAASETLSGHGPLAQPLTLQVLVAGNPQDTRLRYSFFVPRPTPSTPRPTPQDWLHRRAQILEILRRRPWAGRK
Test: Inhibition of ADAMTS-4 assessed as substrate cleavage by measuring increase in fluorescence after 16 hrs

C[C@@H](C[C@@](C)(CS(=O)(=O)N1CCC(OCc2ccc(Cl)cc2Cl)CC1)N(O)C=O)c1ncc(F)cn1
IC50: 3.5 nM
